This passage reports Ratio results from ChEMBL document CHEMBL4325822, “Discovery of a tetrazolyl β-carboline with in vitro and in vivo osteoprotective activity under estrogen-deficient conditions” (Medchemcomm, 2018).

Sequences of proteins named here, by UniProt entry; tags and fusion partners are left off. A change or cut given only in a name is not applied to a line headed by its entry.
UniProt Q9QY78: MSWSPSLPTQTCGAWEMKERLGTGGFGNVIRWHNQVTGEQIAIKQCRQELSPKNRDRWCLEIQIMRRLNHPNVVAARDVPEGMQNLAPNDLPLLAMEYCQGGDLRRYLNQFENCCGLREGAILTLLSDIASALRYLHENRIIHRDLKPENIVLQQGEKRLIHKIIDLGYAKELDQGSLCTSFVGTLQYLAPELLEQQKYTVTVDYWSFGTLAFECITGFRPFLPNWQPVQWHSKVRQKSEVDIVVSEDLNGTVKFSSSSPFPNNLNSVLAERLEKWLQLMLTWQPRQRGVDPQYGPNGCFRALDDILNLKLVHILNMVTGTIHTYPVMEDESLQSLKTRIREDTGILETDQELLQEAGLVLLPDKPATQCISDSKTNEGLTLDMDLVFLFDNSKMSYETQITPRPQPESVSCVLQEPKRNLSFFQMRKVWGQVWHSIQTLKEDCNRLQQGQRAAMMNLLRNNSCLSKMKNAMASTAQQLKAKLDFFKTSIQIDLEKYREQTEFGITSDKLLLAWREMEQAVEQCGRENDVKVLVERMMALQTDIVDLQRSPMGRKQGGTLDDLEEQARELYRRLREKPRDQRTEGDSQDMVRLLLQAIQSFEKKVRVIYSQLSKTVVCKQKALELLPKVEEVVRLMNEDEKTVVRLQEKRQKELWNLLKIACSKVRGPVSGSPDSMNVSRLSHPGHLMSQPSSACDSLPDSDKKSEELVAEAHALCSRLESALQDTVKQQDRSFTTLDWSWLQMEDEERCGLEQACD
UniProt Q6TMG5: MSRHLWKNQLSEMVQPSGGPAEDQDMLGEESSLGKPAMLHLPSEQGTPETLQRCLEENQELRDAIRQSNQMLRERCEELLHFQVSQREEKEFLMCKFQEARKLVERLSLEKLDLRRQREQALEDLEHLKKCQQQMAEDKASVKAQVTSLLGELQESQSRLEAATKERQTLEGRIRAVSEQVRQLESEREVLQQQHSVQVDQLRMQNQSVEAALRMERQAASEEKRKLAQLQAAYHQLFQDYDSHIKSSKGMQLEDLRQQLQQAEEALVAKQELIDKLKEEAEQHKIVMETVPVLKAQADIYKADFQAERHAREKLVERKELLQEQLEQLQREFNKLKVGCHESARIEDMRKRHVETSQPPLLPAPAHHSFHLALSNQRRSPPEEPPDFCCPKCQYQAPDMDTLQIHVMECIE

Assay type in all cases: cell-based
Common to all, as to conditions: Calvarial osteoblast

Test [1] concerns the target T1, I-kappa-B kinase (Rattus norvegicus) (UniProt Q9QY78+G3V926+Q6TMG5). Kind of test: Inhibition of IKK in TNFalpha-simulated Sprague-Dawley rat calvarial osteoblasts assessed as ratio of Bcl-xL level to beta-actin level at 100 pM after 24 hrs by Western blot analysis.
In test [2] the target is T1, I-kappa-B kinase (Rattus norvegicus). Kind of test: Inhibition of IKK in Sprague-Dawley rat calvarial osteoblasts assessed as reduction in TNFalpha-induced beta-catenin degradation by measuring ratio of beta-catenin level to beta-actin level at 100 pM after 24 hrs by Western blot analysis. On the technique in general: In western blotting, separated proteins are transferred to a membrane and probed.

Test [3] has the same target. Kind of test: Inhibition of IKK in TNFalpha-simulated Sprague-Dawley rat calvarial osteoblasts assessed as ratio of Bcl2 level to beta-actin level at 100 pM after 24 hrs by Western blot analysis.
The target is the same in test [4]. Kind of test: Inhibition of IKK in Sprague-Dawley rat calvarial osteoblasts assessed as reduction in TNFalpha-induced NFkB signaling by measuring ratio of cytosolic p65 level to beta-actin level at 100 pM after 24 hrs by Western blot analysis.
Test [5] shares this target. Kind of test: Inhibition of IKK in Sprague-Dawley rat calvarial osteoblasts assessed as reduction in TNFalpha-induced NFkB signaling by measuring ratio of nuclear p65 level to beta-actin level at 100 pM after 24 hrs by Western blot analysis.
The target is the same in test [6]. Kind of test: Inhibition of IKK in TNFalpha-simulated Sprague-Dawley rat calvarial osteoblasts assessed as ratio of IkBalpha level to beta-actin level at 100 pM after 24 hrs by Western blot analysis.
For test [7] the target is unchanged. Kind of test: Inhibition of IKK in TNFalpha-simulated Sprague-Dawley rat calvarial osteoblasts assessed as ratio of Bax level to beta-actin level at 100 pM after 24 hrs by Western blot analysis.
Test [8] shares this target. Kind of test: Inhibition of IKK in Sprague-Dawley rat calvarial osteoblasts assessed as reduction in TNFalpha-induced IkBalpha phosphorylation by measuring ratio of phosphorylated IkBalpha level to beta-actin level at 100 pM after 24 hrs by Western blot analysis.

For `CCOC(=O)c1cc2c([nH]c3ccccc32)c(C(c2nnnn2C(C)(C)C)N2CCN(C)CC2)n1` (stereo not drawn), the Ratio in test [1] was 1.52; in test [2], 0.77; in test [3], 1.59; in test [4] it was 1.2; in test [5], 1.08; in test [6], 1.23. Besides, the Ratio in test [7] was 0.83; in test [8] it was 1.21.
